These are literature values, as cited in publication PMC8466755, “GPCR Pharmacological Profiling of Aaptamine from the Philippine Sponge Stylissa sp. Extends Its Therapeutic Potential for Noncommunicable Diseases” (Molecules, 2021).

The chains behind the UniProt entries cited, without tags or fusion partners.
UniProt P25106, whole entry: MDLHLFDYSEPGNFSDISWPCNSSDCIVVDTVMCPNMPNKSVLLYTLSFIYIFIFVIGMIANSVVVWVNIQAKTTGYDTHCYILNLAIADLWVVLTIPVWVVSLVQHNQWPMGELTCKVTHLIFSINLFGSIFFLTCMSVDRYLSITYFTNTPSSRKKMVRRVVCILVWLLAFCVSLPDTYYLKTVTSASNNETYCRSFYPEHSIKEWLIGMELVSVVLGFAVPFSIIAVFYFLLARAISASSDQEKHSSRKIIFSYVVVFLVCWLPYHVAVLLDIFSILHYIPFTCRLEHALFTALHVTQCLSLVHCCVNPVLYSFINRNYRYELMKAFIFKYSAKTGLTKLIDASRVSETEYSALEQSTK

pEC50: −log10 of the molar value.

The target in this data set is CXCR7 (Homo sapiens, UniProt P25106). As to conditions: read-out: EC50 against CXCR7; cited from earlier work.

With `N=C(N)NCCC[C@H](NC(=O)[C@@H]1CSSC[C@H](NC(=O)[C@H](Cc2ccc3ccccc3c2)NC(=O)[C@H](CCCNC(=N)N)NC(=O)[C@@H](N)CCCNC(=N)N)C(=O)N[C@@H](Cc2ccc(O)cc2)C(=O)N[C@@H](CCCNC(N)=O)C(=O)N[C@@H](CCCCN)C(=O)N[C@H](CCCNC(N)=O)C(=O)N2CCC[C@H]2C(=O)N[C@@H](Cc2ccc(O)cc2)C(=O)N[C@@H](CCCNC(=N)N)C(=O)N[C@@H](CCCNC(N)=O)C(=O)N1)C(N)=O`, the pEC50 is 8.46.

As usually defined, the pEC50 is the negative decadic logarithm of the EC50, by convention in mol/L.
